{"sequences": {"note": "Amino acid sequences for entries named in this document (tags omitted). A change or cut given only in a name is not applied to a line headed by its entry.", "UniProt P49682": "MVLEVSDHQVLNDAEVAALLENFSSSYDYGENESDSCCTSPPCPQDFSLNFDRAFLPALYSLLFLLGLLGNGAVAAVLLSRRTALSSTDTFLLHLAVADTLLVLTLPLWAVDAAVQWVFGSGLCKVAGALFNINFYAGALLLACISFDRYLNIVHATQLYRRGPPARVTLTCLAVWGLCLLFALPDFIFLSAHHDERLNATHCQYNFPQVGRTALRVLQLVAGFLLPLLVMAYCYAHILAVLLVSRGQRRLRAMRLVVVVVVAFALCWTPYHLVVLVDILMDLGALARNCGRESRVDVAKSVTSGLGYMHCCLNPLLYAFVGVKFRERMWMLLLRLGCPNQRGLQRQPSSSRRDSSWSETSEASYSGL"}, "source": "patent US9073853B2", "about": "“Cycloalkane carboxylic acid derivatives as CXCR3 receptor antagonists” (Sanofi, priority 2011, dated 2015)", "target": "human CXCR3-A receptor (Homo sapiens (Human), UniProt P49682)", "experiment": "125I-CXCL10 competition radioligand binding assay", "settings": "displacement of 125I-CXCL10 from membranes of CHO cells expressing human recombinant CXCR3-A", "description": "Compounds according to the invention as described are useful to block the interaction of CXCR3-A and CXCL10 in a radiolabelled binding assay. […] IC50 values were determined for the test compounds and used to explore the structure-activity relationships (SAR). […] This cell line was registered in Sanofi-Aventis cell line bank. […] Cell suspension was diluted with PBS and cells were collected with centrifugation at 230 g for 10 minutes at 10° C. with a Juan centrifuge. […] This suspension was homogenized with a Teflon/glass homogenizer (Sartorius potter S) with 3×10 sec pulses in ice cold water bath, and then centrifuged at 300×g for 10 min at 4° C. with a Sigma centrifuge. The supernatant was carefully collected and centrifuged at 100,000×g for 60 min at 4° with a Beckman Avanti J30 centrifuge. […] Protein concentration was determined with Bio-Rad protein assay (Cat No 500-0006). Membrane aliquots were stored at -80° C. No degradation was observed until a storage period of approximately 5 months. The composition of the binding assay buffer was determined in a course of detailed optimization procedure. […] Binding reaction was initiated by adding of membranes (10-20 μg proteins, approximately 5×10^5 cell equivalents) to the reaction mixture. […] The radioactivity retained on the filters was measured by a Wizard 1470 Automatic Gamma counter. […]"}
{"smiles": "COc1cc(CN(C[C@H]2CC[C@H](C(=O)O)CC2)[C@@H](C)c2ccc3c(c2)CCO3)ccc1OCCN1C(=O)CCC1=O", "note": "[Example 4, trans-4-[([(S)-1-(2,3-Dihydro-benzofuran-5-yl)-ethyl]-{4-[2-(2,5-dioxo-pyrrolidin-1-yl)-ethoxy]-3-methoxy-benzyl}-amino)-methyl]-cyclohexanecarboxylic acid]", "values": [{"measurement": "IC50", "value": 37, "unit": "nM"}]}
{"smiles": "COc1cc(CN(C[C@H]2CC[C@@H](C(=O)O)CC2)C(C)c2ccc3c(c2)CCO3)ccc1OCCN1C(=O)CCC1=O", "note": "(stereo partly drawn) [Example 2, cis-4-[([1-(2,3-Dihydro-benzofuran-5-yl)-ethyl]-{4-[2-(2,5-dioxo-pyrrolidin-1-yl)-ethoxy]-3-methoxy-benzyl}-amino)-methyl]-cyclohexanecarboxylic acid]", "values": [{"measurement": "IC50", "value": 760, "unit": "nM"}]}
